# Activity calls are given as the source filed them. The calls are words filed in the database; no cut-off is given here.
# Tests used:
# L1210 = test: Antitumor activity in BDF1 mouse L1210 cells assessed as number of cured mouse at 5 mg/kg/day, ip after 90 days
# P388 = test: Antitumor activity in BDF1 mouse bearing P388 cells assessed as number of cured mouse at 5 mg/kg/day, ip after 90 days
SMILES,Activity (L1210),Activity (P388)
Cc1ccc(C(=O)O)cc1N(CCCl)CCCl,inactive,inactive
O=C(O)Cc1ccc(N(CCCl)CCCl)cc1,inactive,inactive

# Reference: ChEMBL document CHEMBL1157172, “Rational design, synthesis, and in vivo evaluation of the antileukemic activity of six new alkylating steroidal esters” (Bioorg Med Chem, 2008)
